{
  "source": "patent US10618930B2",
  "about": "“Compounds for the treatment of cancer” (Eisai R&D Management Co., Ltd., priority 2017, dated 2020)",
  "key": {"CT26 tumor cells": {"system": "CT26 tumor cells", "settings": "10 mg/kg intratumorally, a single time"}, "GL261 mouse glioma cells": {"system": "GL261 mouse glioma cells", "settings": "10 mg/kg intratumorally, a single time"}, "[1]": {"settings": "into the sc tumor, overall survival"}},
  "data": [
    {"molecule": "O=[P@]1(S)OC[C@H]2O[C@@H]3[C@H](F)[C@@H]2O[P@](=O)(S)OC[C@H]2O[C@H]([C@H](F)[C@@H]2O1)n1cnc2c(ncnc21)NC/C=C/CNc1ncnc2c1ncn23", "note": "[Compound 1a]", "values": [
      {"measurement": "activity towards the local sc tumors", "setting": "CT26 tumor cells", "value": "potent activity"},
      {"measurement": "curative systemic activity (treated animals)", "setting": "CT26 tumor cells; [1]", "value": "9 of 10"},
      {"measurement": "activity at local sc tumors", "setting": "GL261 mouse glioma cells", "value": "potent activity"},
      {"measurement": "curative systemic activity (treated animals)", "setting": "GL261 mouse glioma cells; [1]", "value": "5 of 8"}
    ]}
  ]
}
